## Antibody variant affinities, Ab-14 light chain, assay B

All variants were tested on one target, the spike HR2 peptide PDVDLGDISGINAS (SARS-CoV-2).

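The parent was found by panning a naive human phage display library on the peptide. This is the validation round: designs drawn from the data on random variants, tested in the same kind of assay. Several design methods are mixed in this list. Affinity was read by AlphaSeq, a pooled yeast mating assay with surface-displayed partners. After mating in shaken culture at 30 °C for 16 h, diploids were selected and their barcode pairs sequenced. A regression on co-assayed BCL2-family reference pairs converts the normalised counts of each replicate to an apparent Kd. There are six technical replicates.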

Parent scFv Ab-14: VH joined to VL by a 15-residue (Gly4Ser)3 linker. Changes lie in the light chain CDRs alone.
VH: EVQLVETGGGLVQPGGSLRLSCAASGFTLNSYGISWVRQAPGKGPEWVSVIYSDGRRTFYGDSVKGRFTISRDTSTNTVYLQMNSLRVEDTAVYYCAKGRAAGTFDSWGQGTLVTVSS
VL: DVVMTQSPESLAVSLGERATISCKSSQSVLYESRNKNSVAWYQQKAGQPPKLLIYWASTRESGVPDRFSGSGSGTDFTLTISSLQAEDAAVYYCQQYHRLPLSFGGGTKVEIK

Variants are written as CDR1, CDR2 and CDR3 of the light chain (limits as in the source). Parent: KSSQSVLYESRNKNSVA, WASTRES, QQYHRLPLS.
This list holds designs with at most six substitutions.
Values are log10 of the apparent Kd in nM; lower means stronger binding.
An entry "nd" has no value in the source: the pair was not observed among the diploids in that replicate. This suggests poor binding but is not conclusive.

For KMEQGDLYESRNKNSVA / GASVRES / QQYHRLPLS, the assay gave -0.42, -0.58, -0.63, -0.92, -0.75, -0.55 (controls 0 of 18). Variant KVSFSVLYESRNKNSVA / EASTRES / QQYHRLPLS gave 0.40, 0.68, 0.30, 0.39, 0.23, 0.32 (controls 2 of 18). With KLSMSVLYESRNKNSVA / NASTRES / QQYHRLPLI the result was 0.12, -0.08, 0.07, -0.12, 0.04, -0.15 (controls 0 of 18). Variant KFSPSVLYESRMKNSVA / NASTRES / QQYHRLPLS showed 0.01, -0.01, 0.03, -0.34, -0.12, 0.09 (controls 1 of 18). Variant MSSQSVLYESNNDNSVA / WASTRES / QQYHRLPLS showed 0.68, 1.77, nd, 1.82, nd, nd (controls 0 of 18).

With KYQQSEPYESRNKNSVA / NASTRES / QQYHQLPLS the result was 0.44, 0.61, 0.41, 0.27, 0.52, 0.64 (controls 0 of 18). With KSDQSVLYESLNFNSVA / WRSTRES / QQYHRLPLS the result was nd, nd, nd, nd, nd, nd (controls 0 of 18). With KSQQSVWYESRMKNSVA / NASLRCS / QQYHRLPLS the result was 1.19, 1.14, 1.61, 1.15, 1.11, 1.14 (controls 0 of 18). Variant KVSQSVLYESRMKNSVA / DASTRCS / QQYHRLPLV gave 0.18, 0.14, -0.12, -0.20, -0.14, 0.01 (controls 2 of 18). Variant KSSQSVLYESRNKNSVA / QATTRES / QQYHRLPLS showed 0.65, 0.74, 0.22, 0.39, 0.07, 0.51 (controls 0 of 18).

Variant KSMQSVLYESRDKNSVA / KASTRES / QQYHRLPLS gave 1.34, 0.70, 0.42, 0.08, 0.39, 0.52 (controls 2 of 18). With KLSQSELYESRNKNSVA / EASTRES / QQYHRLPLS the result was -0.18, -0.22, -0.41, -0.37, -0.33, -0.21 (controls 1 of 18). For KVLQSVLYESRNKNSVA / NASTRED / QQYHRLPLS, the assay gave 0.46, 0.20, 0.17, 0.12, 0.20, 0.34 (controls 4 of 18). Variant KLMQSHLYESRNKNSVA / EASTRES / QQYHRLPLS showed 0.11, 0.12, 0.05, -0.29, 0.03, 0.02 (controls 0 of 18). With KSKQSVQYESRNKNSVA / HASTRES / QQYHRLPLD the result was nd, 1.28, 2.18, 1.20, 1.63, 1.26 (controls 0 of 18).

With KSSNSVLDESKNKNSVA / WASTRES / QQYMRLPLS the result was 1.02, 1.75, 1.34, 1.51, 1.27, 1.95 (controls 1 of 18). For KMSQSVLHGWRNKNSVA / WATTRES / QQYHRLPLS, the assay gave nd, 2.73, nd, 2.83, 3.74, 2.95 (controls 2 of 18). Variant KLQQSVLYESRNKNSVA / NASTRMS / QDYHRLPLS showed 0.16, -0.24, 0.01, -0.47, -0.29, -0.05 (controls 2 of 18). Variant KSSQSVDGEQRNKNSVA / DASTRES / QQYHRLPLS gave -0.12, 0.27, -0.22, -0.29, -0.14, 0.05 (controls 1 of 18). Variant KLRMSQLYESRNKNSVA / NASTRES / QQYHRLPLS gave -0.40, -0.64, -0.68, -0.63, -0.45, -0.44 (controls 0 of 18).

With KVSQSWLYESRNKNSVA / HASQRES / QQYHRLPLS the result was -0.23, -0.09, -0.17, -0.27, -0.25, -0.17 (controls 1 of 18). Variant KCSQSVLYESRNKNNVA / DASTRES / QQYHRLPLS showed -0.25, -0.34, -0.49, -0.36, -0.30, -0.09 (controls 1 of 18). Variant KSGQGDLYESRNKNSVA / GASTRES / QQYHRLPLH showed 0.39, 0.37, 0.18, 0.37, 0.34, 0.45 (controls 1 of 18). With KLQQSKLYESRNKNSVA / NASTRLS / QQYHRLPLS the result was 0.06, -0.01, 0.01, -0.01, -0.05, 0.18 (controls 1 of 18). Variant KLSQSILYESVNKNSVA / HASTRES / QQYHRLPLS showed 0.24, 0.09, 0.14, 0.12, 0.04, 0.30 (controls 5 of 18).

Variant KFSQSVLYESRTKNSVA / NWSTRES / QQYERLPLS gave 0.08, 1.10, 0.01, 0.17, -0.29, 0.21 (controls 0 of 18). With KLRQSTVYESRNKNKVA / WASTRES / QQYHRMPLS the result was 1.50, 1.21, 1.87, 2.87, 2.39, 1.16 (controls 0 of 18). With HLSPSVLYESRNKNSVA / NASTRES / QQYHRLPFS the result was -0.19, -0.29, -0.28, -0.55, -0.32, -0.14 (controls 2 of 18). For HLEQSELYESRMKNSVA / NASTRES / QQYHRLPLS, the assay gave 0.43, 0.69, 0.92, 0.56, 0.37, 0.89 (controls 1 of 18). Variant KLSQSELYESRQKNSVA / NASTRES / QQYHRLPLS gave 0.00, 0.04, -0.17, -0.26, -0.32, -0.15 (controls 2 of 18).

Variant KISQSVQYESRNKNSVA / WASTRES / QQYHRCPLS showed nd, nd, nd, nd, nd, nd (controls 0 of 18). Variant KSSQSVLYESRNKNSVA / DASTRES / YQYHRLPLS showed nd, nd, nd, nd, nd, nd (controls 0 of 18). For KSSISFLYESRNKNSVA / EASTREE / QQYHRLPLS, the assay gave 0.24, 0.13, -0.18, -0.04, -0.10, 0.02 (controls 0 of 18).

A sequence measured in both rounds can read differently, since the two assays cover different ranges.
Empty control strains, which show no peptide, gave a signal in 4% of pairings with all light chain designs; the median was 2.64 and 95% of these signals were weaker than 1.59. No background was subtracted. For each scFv, signals with the empty controls are counted beside the result.
Of ten entries with the parent sequence, four were seen in most replicates (averages 0.34 to 2.37), three in one and three in none, so single entries are noisy.
The authors averaged sequences with at least three values out of six and counted those with two or fewer as poor binders.

Data: MIT Lincoln Laboratory AlphaSeq set, Li et al. 2023, doi:10.1038/s41467-023-39022-2, as distributed in FLAb.